These results are taken from ChEMBL document CHEMBL1141893, “5-Lipoxygenase inhibition by N-hydroxycarbamates in dual-function compounds” (Bioorg Med Chem Lett, 2005).

Sequences of proteins named here, by UniProt entry; tags and fusion partners are left off.
UniProt P35367, whole entry: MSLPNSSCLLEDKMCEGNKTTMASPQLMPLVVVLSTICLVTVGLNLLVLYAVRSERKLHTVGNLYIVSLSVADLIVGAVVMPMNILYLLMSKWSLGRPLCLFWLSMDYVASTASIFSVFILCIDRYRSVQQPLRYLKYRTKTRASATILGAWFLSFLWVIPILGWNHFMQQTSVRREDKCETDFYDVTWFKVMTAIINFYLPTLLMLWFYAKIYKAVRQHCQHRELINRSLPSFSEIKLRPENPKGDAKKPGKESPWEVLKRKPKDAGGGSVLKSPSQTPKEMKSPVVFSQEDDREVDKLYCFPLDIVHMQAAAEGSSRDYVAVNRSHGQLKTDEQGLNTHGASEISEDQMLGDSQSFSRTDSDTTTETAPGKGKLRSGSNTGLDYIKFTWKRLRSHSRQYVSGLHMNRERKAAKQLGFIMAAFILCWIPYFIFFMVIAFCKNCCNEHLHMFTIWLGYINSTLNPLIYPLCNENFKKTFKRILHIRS

This test has as its target Histamine H1 receptor (Homo sapiens, UniProt P35367). The test can be described thus: Binding affinity for recombinant human Histamine H1 receptor expressed in CHO K1 cells. The format is cell-based.

The term Ki denotes a measure of affinity in units of concentration, obtained from inhibition or displacement.

In the case of `NC(=O)N(O)CCC#Cc1ccc(OCCCCN2CCN(C(c3ccc(F)cc3)c3ccc(F)cc3)CC2)cc1`, the Ki turned out to be 3.63 nM.
